Results taken from patent US20220204624A1 (published 2022).

Experiments:
Experiment in all cases: Octet
[1] = target: 1C11_H3.188_L3 (XENP25340)
[2] = target: 1C11_H3.188_L3.144 (XENP25334)
[3] = target: 1C11_H3_L3.141 (XENP25341)
[4] = target: 1C11_H3.224_L3.148 (XENP25337)
[5] = target: 1C11_H3.226_L3.144 (XENP25338)
[6] = target: 1C11_H3.226_L3.148 (XENP25339)
[7] = target: 1C11_H3.224_L3.144 (XENP25336)
[8] = target: 1C11_H3.188_L3.148 (XENP25335)
1C11_H3.85_L3 = target: 1C11_H3.85_L3
1C11_H3.84_L3 = target: 1C11_H3.84_L3
1C11_H3.78_L3 = target: 1C11_H3.78_L3
1C11_H3.82_L3 = target: 1C11_H3.82_L3
1C11_H3.154_L3 = target: 1C11_H3.154_L3
1C11_H3.50_L3 = target: 1C11_H3.50_L3
1C11_H3.83_L3 = target: 1C11_H3.83_L3
1C11_H3.168_L3 = target: 1C11_H3.168_L3
1C11_H3.74_L3 = target: 1C11_H3.74_L3
1C11_H3.80_L3 = target: 1C11_H3.80_L3
1C11_H3.81_L3 = target: 1C11_H3.81_L3
1C11_H3.150_L3 = target: 1C11_H3.150_L3
1C11_H3.172_L3 = target: 1C11_H3.172_L3
1C11_H3.158_L3 = target: 1C11_H3.158_L3
1C11_H3.43_L3 = target: 1C11_H3.43_L3
1C11_H3.159_L3 = target: 1C11_H3.159_L3
1C11_H3.59_L3 = target: 1C11_H3.59_L3
1C11_H3.62_L3 = target: 1C11_H3.62_L3
[9] = target: 1C11_H3.228_L3.144 (XENP25833)
[10] = target: 1C11_H3.224_L3.148 (XENP25337); remark: listed apart in the source
[11] = target: 1C11_H3.234_L3.144 (XENP25835)
[12] = target: 1C11_H3.224_L3.144 (XENP25336); remark: listed apart in the source
[13] = target: 1C11_H3.234_L3.148 (XENP25836)
[14] = target: 1C11_H3_L3.142 (XENP25342)
[15] = target: 1C11_H3.228_L3.148 (XENP25834)
1C11_H3_L3.105 = target: 1C11_H3_L3.105
1C11_H3_L3.96 = target: 1C11_H3_L3.96
[16] = target: 1C11_H3.237_L3 (XENP25332)
[17] = target: 1C11_H3.235_L3 (XENP25330)
[18] = target: 1C11_H3.238_L3 (XENP25333)
[19] = target: 1C11_H3.236_L3 (XENP25331)

- Kd [1]: 53.2 nM
- Kd [2]: 50.4 nM
- Kd [3]: 33.7 nM
- Kd [4]: 31.2 nM
- Kd [5]: 43.7 nM
- Kd [6]: 41.8 nM
- Kd [7]: 33.1 nM
- Kd [8]: 41.3 nM
- Kd (1C11_H3.85_L3): 17.8 nM
- Kd (1C11_H3.84_L3): 20.1 nM
- Kd (1C11_H3.78_L3): 47.5 nM
- Kd (1C11_H3.82_L3): 16 nM
- Kd (1C11_H3.154_L3): 22.4 nM
- Kd (1C11_H3.50_L3): 18 nM
- Kd (1C11_H3.83_L3): 35.7 nM
- Kd (1C11_H3.168_L3): 22.5 nM
- Kd (1C11_H3.74_L3): 39 nM
- Kd (1C11_H3.80_L3): 38.8 nM
- Kd (1C11_H3.81_L3): 22.2 nM
- Kd (1C11_H3.150_L3): 18.9 nM
- Kd (1C11_H3.172_L3): 24.1 nM
- Kd (1C11_H3.158_L3): 15.9 nM
- Kd (1C11_H3.43_L3): 16 nM
- Kd (1C11_H3.159_L3): 22.9 nM
- Kd (1C11_H3.59_L3): 9.74 nM
- Kd (1C11_H3.62_L3): 16.2 nM
- Kd [9]: 38.8 nM
- Kd [10]: 31.2 nM
- Kd [11]: 27.4 nM
- Kd [12]: 33.1 nM
- Kd [13]: 37.5 nM
- Kd [14]: 35.5 nM
- Kd [15]: 41.9 nM
- Kd (1C11_H3_L3.105): 20.4 nM
- Kd (1C11_H3_L3.96): 26.5 nM
- Kd [16]: 34.4 nM
- Kd [17]: 31.4 nM
- Kd [18]: 38.4 nM
- Kd [19]: 39.4 nM
B1: PD-1 (receptor)
chain: LDSPDRPWNPPTFSPALLVVTEGDNATFTCSFSNTSESFVLNWYRMSPSNQTDKLAAFPEDRSQPGQDCRFRVTQLPNGRDFHMSVVRARRNDSGTYLCGAISLAPKAQIKESLRAELRVTERRAEVPTAHPSPSPRPAGQFQ

Where two headings read alike, the source gives them in different places.
